Laboratory results as given in publication PMC8380238, “Structure-based virtual screening of CYP1A1 inhibitors: towards rapid tier-one assessment of potential developmental toxicants” (Archives of Toxicology, 2021).

Molecular target: T1, human recombinant CYP1A1 (rCYP1A1) (Homo sapiens, UniProt P04798)
T1 sequence (P04798 1-512): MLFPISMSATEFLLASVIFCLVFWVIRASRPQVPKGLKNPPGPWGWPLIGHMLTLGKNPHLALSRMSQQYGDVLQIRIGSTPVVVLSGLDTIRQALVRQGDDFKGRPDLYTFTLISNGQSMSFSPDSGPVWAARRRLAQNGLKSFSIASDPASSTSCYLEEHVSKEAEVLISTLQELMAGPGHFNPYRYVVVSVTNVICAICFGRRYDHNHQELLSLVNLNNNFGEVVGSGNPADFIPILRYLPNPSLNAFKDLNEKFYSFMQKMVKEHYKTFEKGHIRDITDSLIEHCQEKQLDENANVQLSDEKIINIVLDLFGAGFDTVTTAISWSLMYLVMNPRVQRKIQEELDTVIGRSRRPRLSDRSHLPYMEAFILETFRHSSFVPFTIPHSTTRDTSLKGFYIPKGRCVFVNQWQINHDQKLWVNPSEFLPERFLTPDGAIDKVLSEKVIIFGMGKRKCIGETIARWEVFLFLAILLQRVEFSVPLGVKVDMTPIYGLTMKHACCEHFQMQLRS
Experiment: CYP1A1 activity assay repeated at six CEC concentrations (Ki, α, mode of inhibition)

Row | SMILES | α (degree to which the binding of inhibitor changes the affinity of the enzyme for substrate)
1 | CC(O)(CS(=O)(=O)c1ccc(F)cc1)C(=O)Nc1ccc(C#N)c(C(F)(F)F)c1 (centres unmarked) [Bicalutamide, reference compound] | 2.7
2 | CCOC(=O)c1ccccc1C(=O)OCC [Diethyl phthalate] | 8.4
